## Apparent affinities of Ab-91 variants for a coronavirus HR2 peptide

Antigen: PDVDLGDISGINAS, a 14-residue peptide of the SARS-CoV-2 spike HR2 region.

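Variants in AAYL51 differ from the parent at up to three CDR positions; double and triple changes were sampled at random. The scFvs were displayed on barcoded MATa yeast, the peptide on MATalpha yeast. After mating in shaken culture at 30 °C for 16 h, diploids were selected and their barcode pairs sequenced. Read counts were normalised to the haploid input and turned into Kd by a linear fit to BCL2-family pairs of known affinity, for each replicate. There are three technical replicates.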

Each scFv is VL, a 15-residue (Gly4Ser)3 linker, VH, as in the parent Ab-91, and differs from it in the CDRs of the heavy chain only.
VL: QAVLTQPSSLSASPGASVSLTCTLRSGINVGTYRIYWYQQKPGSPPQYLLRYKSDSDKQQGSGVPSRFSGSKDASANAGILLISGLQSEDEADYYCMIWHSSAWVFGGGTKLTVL
VH: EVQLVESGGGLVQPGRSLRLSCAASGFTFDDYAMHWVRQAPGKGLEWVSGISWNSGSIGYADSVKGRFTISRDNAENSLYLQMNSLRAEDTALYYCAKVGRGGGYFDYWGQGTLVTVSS

The whole VH of each variant is written out.
Scale: log10 of Kd in nM, estimated from mating counts; low values are strong binders.
Averages over replicates are reported, and they cover detected replicates only.
"ND" means that the variant was in the library but no mating with the target was seen in that replicate; the authors take this as a sign of poor binding, and no number exists.
For reference, the parent read 1.86 as the reference entry and 0.88 as a member of this library.

VH	log10 Kd (nM) by replicate	log10 Kd (nM), mean	empty controls
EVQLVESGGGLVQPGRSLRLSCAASGFTFDDYAMHWVRQAPGKGLEWVSGISWSSQAIGYADSVKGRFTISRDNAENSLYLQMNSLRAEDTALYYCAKVGRGGGYFDYWGQGTLVTVSS	4.32 3.60 3.74	3.88	3/9 (4.78)
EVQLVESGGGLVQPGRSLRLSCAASGFEFDDYAMHWVRQAPGKGLEWVSGISWNSGSIGVADSVKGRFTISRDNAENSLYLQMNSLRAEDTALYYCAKVGRGGGYFDYWGQGTLVTVSS	1.43 1.37 1.38	1.39	6/9 (5.10)
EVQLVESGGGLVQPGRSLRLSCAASGFTFWDYAFHWVRQAPGKGLEWVSGISWNSGSIGYADGVKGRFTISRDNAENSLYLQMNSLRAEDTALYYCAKVGRGGGYFDYWGQGTLVTVSS	4.24 ND ND	4.24	1/9 (3.85)
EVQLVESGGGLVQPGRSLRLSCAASGFWFDDYAMHWVRQAPGKGLEWVSGISWNSGHIGYADSVKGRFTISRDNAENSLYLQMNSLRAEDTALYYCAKVGRGGGYFDYWGQGTLVTVSS	3.96 3.53 3.44	3.64	3/9 (5.04)
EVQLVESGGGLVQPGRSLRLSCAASGFTFDDYAMHWVRQAPGKGLEWVSGISWTSGSIGYASSVKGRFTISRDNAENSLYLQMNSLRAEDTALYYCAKVGRGGGYFDVWGQGTLVTVSS	2.58 2.61 2.33	2.51	0/9
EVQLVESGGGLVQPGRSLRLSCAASGFTFDDYAMGWVRQAPGKGLEWVSGISWNSLSIGYDDSVKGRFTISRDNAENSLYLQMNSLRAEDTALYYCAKVGRGGGYFDYWGQGTLVTVSS	3.92 ND ND	3.92	2/9 (4.69)
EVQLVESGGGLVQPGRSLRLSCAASGFTFDDYAMHWVRQAPGKGLEWVSGIPWNSGSSGYADSVKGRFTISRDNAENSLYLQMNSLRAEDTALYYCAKVGRFGGYFDYWGQGTLVTVSS	ND ND ND	ND	2/9 (4.83)
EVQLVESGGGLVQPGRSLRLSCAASGFTFDFYAMHWVRQAPGKGLEWVSGISWNTGSIGYADPVKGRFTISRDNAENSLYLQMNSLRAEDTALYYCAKVGRGGGYFDYWGQGTLVTVSS	ND ND ND	ND	0/9
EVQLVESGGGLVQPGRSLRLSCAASGFTFDDYAMHWVRQAPGKGLEWVSGISTNSGNIGYFDSVKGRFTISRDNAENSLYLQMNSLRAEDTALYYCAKVGRGGGYFDYWGQGTLVTVSS	3.12 3.40 4.73	3.75	1/9 (4.44)
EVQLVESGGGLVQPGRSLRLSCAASGFTFDDYHMHWVRQAPGKGLEWVSGISGNSGSIPYADSVKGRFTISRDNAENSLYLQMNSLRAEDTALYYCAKVGRGGGYFDYWGQGTLVTVSS	ND ND ND	ND	2/9 (3.83)
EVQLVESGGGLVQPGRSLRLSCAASGFTFDDYAMHWVRQAPGKGLEWVSGISWNSGSIGYADSVKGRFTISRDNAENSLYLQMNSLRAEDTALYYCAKVGRGGGANDTWGQGTLVTVSS	4.96 5.91 ND	5.43	1/9 (5.84)
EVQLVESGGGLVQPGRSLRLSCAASGFTFDDYAMHWVRQAPGKGLEWVSKISWNSGGIGYADSVKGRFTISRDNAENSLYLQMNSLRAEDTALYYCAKVGRGGGYFDYWGQGTLVTVSS	ND 5.18 5.11	5.14	4/9 (4.53)
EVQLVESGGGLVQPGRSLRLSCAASGFTHDDYAMHWVRQAPGKGLEWVSGISWNHGSIGYADSVPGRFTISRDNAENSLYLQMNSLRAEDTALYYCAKVGRGGGYFDYWGQGTLVTVSS	ND 6.23 ND	6.23	5/9 (4.71)
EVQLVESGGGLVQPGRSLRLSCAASGFTFDDYAMHWVRQAPGKGLEWVSGGSWNSGSIGYADSVKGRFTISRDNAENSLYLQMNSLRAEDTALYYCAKTGRLGGYFDYWGQGTLVTVSS	3.68 4.33 ND	4.01	2/9 (3.72)
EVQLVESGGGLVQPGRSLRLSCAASFFTFDDYAMHWVRQAPGKGLEWVSGISWESGSIGYADSVKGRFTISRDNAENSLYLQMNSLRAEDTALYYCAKVGRGGGYWDYWGQGTLVTVSS	ND ND ND	ND	0/9
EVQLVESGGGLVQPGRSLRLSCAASRFTFDDYAYHWVRQAPGKGLEWVSGISWNSGSIGYADSVKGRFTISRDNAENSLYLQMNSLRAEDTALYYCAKVGRGGGYFVYWGQGTLVTVSS	3.60 ND 4.85	4.23	2/9 (4.60)
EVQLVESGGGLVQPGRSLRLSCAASGFTFDDYAMHWVRQAPGKGLEWVSGIAWNSGSIGYPDSVKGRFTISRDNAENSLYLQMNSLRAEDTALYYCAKVGRGGGMFDYWGQGTLVTVSS	ND ND ND	ND	2/9 (4.60)
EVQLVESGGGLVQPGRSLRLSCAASGFTFDDYAMHWVRQAPGKGLEWVSGISWNPGSIGYADSVKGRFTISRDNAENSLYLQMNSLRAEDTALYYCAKVGRGTGYFPYWGQGTLVTVSS	ND 2.46 3.35	2.90	0/9
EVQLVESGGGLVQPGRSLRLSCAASGFTFDDYAMHWVRQAPGKGLEWVSGISDNLGTIGYADSVKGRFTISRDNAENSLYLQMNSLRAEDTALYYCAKVGRGGGYFDYWGQGTLVTVSS	ND ND ND	ND	0/9
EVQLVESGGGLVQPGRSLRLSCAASGFTFDDYAMHWVRQAPGKGLEWVSSIFWNSGSIGYADSVKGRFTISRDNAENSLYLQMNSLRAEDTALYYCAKVGRGGGYFDCWGQGTLVTVSS	3.67 ND ND	3.67	0/9
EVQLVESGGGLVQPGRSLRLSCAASGFTFDRYAMHWVRQAPGKGLEWVSGISWNSGSIGYIDSQKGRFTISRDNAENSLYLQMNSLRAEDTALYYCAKVGRGGGYFDYWGQGTLVTVSS	4.82 6.47 5.37	5.55	4/9 (3.92)
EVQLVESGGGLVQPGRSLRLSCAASHFTFDDYAMHWVRQAPGKGLEWVSGISWNSGSIGYALSVKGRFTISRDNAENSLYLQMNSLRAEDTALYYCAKVFRGGGYFDYWGQGTLVTVSS	ND ND ND	ND	0/9
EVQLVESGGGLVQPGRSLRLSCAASGFTFDDYAMHWVRQAPGKGLEWVSGGSWNSGSIWYADWVKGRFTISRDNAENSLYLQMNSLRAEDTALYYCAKVGRGGGYFDYWGQGTLVTVSS	4.60 ND ND	4.60	1/9 (5.21)

The last 4 entries again:

| VH | log10 Kd (nM) by replicate | log10 Kd (nM), mean | empty controls |
|---|---|---|---|
| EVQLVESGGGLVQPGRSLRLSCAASGFTFDDYAMHWVRQAPGKGLEWVSSIFWNSGSIGYADSVKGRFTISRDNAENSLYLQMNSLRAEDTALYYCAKVGRGGGYFDCWGQGTLVTVSS | 3.67 ND ND | 3.67 | 0/9 |
| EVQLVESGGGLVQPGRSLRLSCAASGFTFDRYAMHWVRQAPGKGLEWVSGISWNSGSIGYIDSQKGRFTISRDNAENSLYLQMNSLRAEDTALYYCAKVGRGGGYFDYWGQGTLVTVSS | 4.82 6.47 5.37 | 5.55 | 4/9 (3.92) |
| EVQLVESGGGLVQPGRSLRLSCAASHFTFDDYAMHWVRQAPGKGLEWVSGISWNSGSIGYALSVKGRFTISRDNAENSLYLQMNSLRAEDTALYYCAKVFRGGGYFDYWGQGTLVTVSS | ND ND ND | ND | 0/9 |
| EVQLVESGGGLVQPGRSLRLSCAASGFTFDDYAMHWVRQAPGKGLEWVSGGSWNSGSIWYADWVKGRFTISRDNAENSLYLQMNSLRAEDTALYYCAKVGRGGGYFDYWGQGTLVTVSS | 4.60 ND ND | 4.60 | 1/9 (5.21) |

Empty control strains, which show no peptide, gave a signal in 21% of pairings with library AAYL51; the median was 4.54 and 95% of these signals were weaker than 3.26. No background was subtracted. For each scFv, signals with the empty controls are counted beside the result, with their mean in brackets.

Data: MIT Lincoln Laboratory AlphaSeq set, Engelhart et al. 2022, doi:10.1038/s41597-022-01779-4, as distributed in FLAb.